ChEMBL document CHEMBL3259517, “Synthesis and evaluation of phosphorus containing, specific CDK9/CycT1 inhibitors” (J Med Chem, 2014)

Protein sequences, listed by entry. Tags and fused reporters are not part of them. Residues count along the entry.
UniProt P24864, whole entry: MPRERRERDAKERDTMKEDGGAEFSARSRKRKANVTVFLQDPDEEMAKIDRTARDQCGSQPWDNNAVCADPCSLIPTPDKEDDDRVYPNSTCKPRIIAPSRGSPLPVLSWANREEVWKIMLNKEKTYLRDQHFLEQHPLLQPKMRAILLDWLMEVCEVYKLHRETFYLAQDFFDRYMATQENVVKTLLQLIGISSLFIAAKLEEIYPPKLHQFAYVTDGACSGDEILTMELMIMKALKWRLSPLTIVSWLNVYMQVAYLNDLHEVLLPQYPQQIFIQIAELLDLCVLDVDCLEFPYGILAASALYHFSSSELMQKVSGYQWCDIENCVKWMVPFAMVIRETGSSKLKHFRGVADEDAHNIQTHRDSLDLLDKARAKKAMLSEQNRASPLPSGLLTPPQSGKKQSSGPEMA
UniProt P11802, 2-303 limits assumed: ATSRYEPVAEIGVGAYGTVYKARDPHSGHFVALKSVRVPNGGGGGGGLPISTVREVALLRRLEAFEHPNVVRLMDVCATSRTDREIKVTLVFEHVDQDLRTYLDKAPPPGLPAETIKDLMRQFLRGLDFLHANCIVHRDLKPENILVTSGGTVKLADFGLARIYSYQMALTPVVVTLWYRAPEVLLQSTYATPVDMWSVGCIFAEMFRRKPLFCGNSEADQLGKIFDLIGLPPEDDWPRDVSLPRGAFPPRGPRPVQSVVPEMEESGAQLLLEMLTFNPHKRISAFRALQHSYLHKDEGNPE
UniProt P24385, whole entry partner: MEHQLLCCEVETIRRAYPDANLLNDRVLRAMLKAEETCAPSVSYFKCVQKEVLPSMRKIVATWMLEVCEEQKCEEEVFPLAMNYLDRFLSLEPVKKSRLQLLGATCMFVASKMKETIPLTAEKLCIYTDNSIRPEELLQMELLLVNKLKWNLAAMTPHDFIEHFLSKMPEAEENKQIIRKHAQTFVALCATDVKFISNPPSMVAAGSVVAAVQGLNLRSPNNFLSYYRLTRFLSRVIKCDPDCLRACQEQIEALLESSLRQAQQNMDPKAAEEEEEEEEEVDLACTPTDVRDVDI

What follows are compounds tested against Cyclin-dependent kinase 2/cyclin E1 (Homo sapiens) (UniProt P24864+P24941) (assay: Inhibition of CDK2/CycE (unknown origin) using FAM labeled peptide as substrate at 10 uM by IMAP FAM FP assay).
Format: protein-complex assay
In short: (§1)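 Run by contract partners as an IMAP fluorescence polarization assay. […] Enzyme amount was set to give 50% substrate turnover. Compounds were added in DMSO, IMAP binding solution added after the kinase step, then FP read.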

In order of rising inhibition:
1. CCOP(=O)(CC)Oc1cc(Nc2cc(-c3ccccc3OC)ncn2)ccc1C (stereo not drawn)  1%
2. CCCP(=O)(Oc1cc(Nc2cc(-c3ccccc3OC)ncn2)ccc1C)OC(C)C (stereo not drawn)  6%
3. CCCP(=O)(Nc1cc(Nc2cc(-c3ccccc3OC)ncn2)ccc1C)OC(C)C (stereo not drawn)  32%
4. CCCP(=O)(O)Oc1cc(Nc2cc(-c3ccccc3OC)ncn2)ccc1C  34%

The compounds below were run against Cyclin-dependent kinase 4/cyclin D1 (Homo sapiens) (UniProt P11802+P24385) (assay: Inhibition of CDK4/CycD1 (unknown origin) using FAM labeled peptide as substrate at 10 uM by IMAP FAM FP assay).
Format: protein-complex assay
In short: as §1

In order of falling inhibition:
1. CCCP(=O)(O)Oc1cc(Nc2cc(-c3ccccc3OC)ncn2)ccc1C  46%
2. CCCP(=O)(Oc1cc(Nc2cc(-c3ccccc3OC)ncn2)ccc1C)OC(C)C (stereo not drawn)  21%
3. CCOP(=O)(CC)Oc1cc(Nc2cc(-c3ccccc3OC)ncn2)ccc1C (stereo not drawn)  13%
4. CCCP(=O)(Nc1cc(Nc2cc(-c3ccccc3OC)ncn2)ccc1C)OC(C)C (stereo not drawn)  2%
